Source: ChEMBL document CHEMBL1155976, “Synthesis and preliminary pharmacological evaluation of imidazo[2,1-f]purine-2,4-dione derivatives” (Eur J Med Chem, 2009)

Assays:
[1] = species: Mus musculus; settings: Swiss albino, 5 mg/kg
[2] = species: Mus musculus; settings: Swiss albino, 0.1 mg/kg
[3] = species: Mus musculus; settings: Swiss albino, 0.1 mg/kg; remark: listed apart in the source
[4] = species: Mus musculus; settings: Swiss albino, 0.1 mg/kg; remark: listed apart in the source
[5] = species: Mus musculus; settings: Swiss albino, 0.1 mg/kg; remark: listed apart in the source
[6] = species: Mus musculus; settings: Swiss albino, 5 mg/kg; remark: listed apart in the source

Row | SMILES | deltaT [1] [°C] | deltaT [2] [°C] | deltaT [3] [°C] | deltaT [4] [°C] | deltaT [5] [°C] | deltaT [6] [°C]
1 | CCCN(CCC)C1CCc2cccc(O)c2C1 (stereo unspecified) | -0.1 | – | – | – | – | –
2 | COc1ccccc1N1CCN(CCN(C(=O)C2CCCCC2)c2ccccn2)CC1 | – | 0.2 | 0.2 | 0.1 | 0.2 | 0.1
